Results: ChEMBL document CHEMBL1140429, “Conversion of the potent delta-opioid agonist H-Dmt-Tic-NH-CH(2)-bid into delta-opioid antagonists by N(1)-benzimidazole alkylation(1)” (J Med Chem, 2005)

Protein sequences, listed by entry. Tags and fused reporters are not part of them.
UniProt P32300, whole entry: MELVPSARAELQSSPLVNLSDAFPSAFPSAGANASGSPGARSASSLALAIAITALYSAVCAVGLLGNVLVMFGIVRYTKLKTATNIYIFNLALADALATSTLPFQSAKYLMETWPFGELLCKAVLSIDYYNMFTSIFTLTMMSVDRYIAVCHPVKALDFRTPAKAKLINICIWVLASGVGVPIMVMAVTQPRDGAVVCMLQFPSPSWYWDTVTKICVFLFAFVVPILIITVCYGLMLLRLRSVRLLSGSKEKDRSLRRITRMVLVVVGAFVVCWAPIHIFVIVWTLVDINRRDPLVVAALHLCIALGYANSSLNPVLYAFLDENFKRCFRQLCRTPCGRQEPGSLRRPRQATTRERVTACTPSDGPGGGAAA

Molecular target: Delta-type opioid receptor (Mus musculus, UniProt P32300)
Assay: Functional bioactivity against delta opioid receptor in mouse vas deferens
Format: tissue-based

Structure (SMILES): CC(C)[C@H](NC(=O)[C@H](CC(=O)O)NC(=O)[C@H](Cc1ccccc1)NC(=O)[C@@H](C)NC(=O)[C@@H](N)Cc1ccc(O)cc1)C(=O)N[C@H](C(=O)NCC(N)=O)C(C)C [DELTORPHIN C]
- pIC50: 9.77

pIC50: −log10 of the molar value.
